The results in this text go back to US20110207751A1, “HETEROCYCLIC COMPOUNDS AND USES AS ANTICANCER AGENTS” (priority 2010, published 2011).

The experiment deals with tubulin (colchicine-binding site). Description: Spin column assay with [^3H]colchicine. The settings on record: tubulin with [^3H]colchicine and unlabeled competitor, 37° C. 1 h. How it is done:
Spin column assay. […] The reaction mixtures were incubated at 37° C. for 1 h. The samples were loaded onto Illustra™ MicroSpin™ G-50 columns (GE Healthcare) previously equilibrated with the buffer solution. The columns were placed into 1.5-ml tubes and spun at 750 g for 2 min at room temperature, and radioactivity in the flow-through was analyzed by a scintillation counter.

For the compound `COc1cc2c(c(OC)c1OC)-c1ccc(OC)c(=O)cc1[C@@H](NC(C)=O)CC2` [colchicine], the “amount of [^3H]colchicine in the flow-through” value was “reduced the amount of [^3H]colchicine found in the flow-through in a concentration-dependent manner”.
